# scFv variants of Ab-14 (heavy chain) against a SARS-CoV-2 spike peptide

Values reported by Li et al. 2023, doi:10.1038/s41467-023-39022-2 (FLAb copy).

Target peptide (SARS-CoV-2 spike, HR2 region): PDVDLGDISGINAS

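This is the validation round: designs drawn from the data on random variants, tested in the same kind of assay. Group labels follow the data file (Ctrl: baseline library sampled from a position-specific scoring matrix, with some repeated check sequences; Rand: our label for a block that the file lists under HC and that is probably the random mutants of the ten best first-round binders; GP: Gaussian process model; GPLM: also part of the Gaussian process libraries; HC: hill climbing; Gen: genetic algorithm; Gibbs: Gibbs sampling; a sequence that several methods proposed may carry one label only). In AlphaSeq, yeast of one mating type display the scFv and yeast of the other type display the target. Binding brings cells together so that they mate, and sequencing counts the barcode pairs among the diploids. The ratio of observed to expected reads was calibrated, replicate by replicate, on BCL2-family standards whose Kd was known from biolayer interferometry. Mating was done six times.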

Parent scFv Ab-14: VH joined to VL by three GGGGS repeats. Changes lie in the heavy chain CDRs alone.
VH: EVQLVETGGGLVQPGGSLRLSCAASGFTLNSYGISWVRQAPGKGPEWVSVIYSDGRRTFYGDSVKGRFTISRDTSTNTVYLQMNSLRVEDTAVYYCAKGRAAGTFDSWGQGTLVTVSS
VL: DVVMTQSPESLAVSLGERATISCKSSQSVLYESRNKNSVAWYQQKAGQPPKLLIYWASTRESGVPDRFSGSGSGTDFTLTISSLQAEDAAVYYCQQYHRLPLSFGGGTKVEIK

Each variant is given by its three heavy chain CDRs, as the data file delimits them; those of the parent are GFTLNSYGIS, VIYSDGRRTFYGDSVK, GRAAGTFDS. This list holds designs with at most six substitutions. The read-out is the apparent dissociation constant on a log10 scale (nM): the lower, the stronger. A mean of the replicates is given; it leaves out those without a signal. Where no diploid with the target was found in any replicate, the entry reads "nd": below detection, most likely a poor binder, though not proof of it. A sequence measured in both rounds can read differently, since the two assays cover different ranges.

CDR-H1,CDR-H2,CDR-H3,group,mean log10 Kd (nM),detected
GFDLNSYGIS,VIYSDGKRTFYSDSVK,GKAAGTFDS,GP_Gen,0.34,6 of 6
GFTLNSYGIS,VIYADGRRTFYGDSVK,GTAAGTFKS,GPLM_HC,0.53,6 of 6
GFTLNEYGIS,VIYSDGRRTFYMDDVK,GRTAGTFDS,GP_HC,0.06,6 of 6
GFNLNSYGIS,VIYSDGRRTFYSDSVK,GRQAGTFDS,GPLM_Gibbs,0.01,6 of 6
GFTLNSYGIS,VIYSDGKRTFYIDSVK,GQAAGTFDV,GP_Gibbs,1.12,2 of 6
GFTLNSYGIS,VIYSDGRRTMYVDSVK,CRADGTFDS,Ctrl,2.08,1 of 6
GFTLNSYEIS,VIYSDGRRTFYDDLVK,GQLAGTFDS,Rand,nd,0 of 6
GFSLNDYGIS,VIYSDGRRTFYADSVK,GRAAGTFDE,GP_HC,0.21,6 of 6
GFDLNSYGIS,VIYADGRRWFYGDSVK,GRAAGTFDS,GP_Gibbs,nd,0 of 6
GFSLNSYGIS,VIYSDGRRTFYGDSVK,GEAAGTFDK,GPLM_Gen,0.54,6 of 6
GFDLNSYGIS,VIYSDGRRTAYGDMVK,GRTAGTFDS,GP_Gen,-0.11,6 of 6
GFTLESYGIS,VIYSDGRRTFYGDSVK,GKEAGTFDS,GP_Gen,1.54,5 of 6
GFTLNSYGIS,VIYSDGRRTFYDDSVK,GQLAHTFDS,Rand,nd,0 of 6
PFDLNSYGIS,VIYSDGRRTFYADSVK,GKAAGTFDS,GP_Gen,1.31,5 of 6
GFTLNQYGMS,VIYSDGRATFYSDSMK,GRAAGFFDS,Rand,nd,0 of 6
GFSLNWYGIS,VIYSDGRRTMYIDSVK,GRAAGTFDS,GP_HC,nd,0 of 6
GETLNDYGIS,VIYSDGRRTFYGDNVK,GRAAGTFDS,Ctrl,nd,0 of 6
GFDLNSYGIS,VIYSDGRRTFYGDSVK,GRTADTFNS,GP_HC,nd,0 of 6
EFTLNSYGIS,VIYADGRRTFYGDSVK,GRAAGTFKS,GP_HC,nd,0 of 6
GFSLNEYGIS,VIYSDGRRTFYGDSVK,GWAAGTFDT,GP_Gibbs,1.09,6 of 6
GFSLNDYGIS,VIYSDGRRTYYGDSVK,GRTAGTFDS,GPLM_Gen,-0.27,6 of 6
QFDLNSYGIS,VIYSDGRRTFYADSVK,GNAAGTFDS,GP_Gibbs,nd,0 of 6
GFTLNDYGIS,VIYSDGSRTFYGDSVK,GRGAGTFDS,Ctrl,nd,0 of 6
GFTLNSYGIS,VIYADGRRTFYGDSVK,GRAAGFFDS,GP_HC,0.38,6 of 6
GFSLNSYGIS,VIYSDGRRTFYKDKVK,GRTAGTFDS,GP_Gen,1.37,6 of 6
GFSLNSYGIS,VIYSDGRRTFYVDSVK,GRQAGTFDA,GP_Gen,1.56,6 of 6
GRTLNQYGIS,VIYSDGRRTFYGDSVK,GRAAGTFDS,Ctrl,0.86,1 of 6
GFTLNSYGIS,VIYSDGRRTFYGDEVK,GDAEGTFDS,Ctrl,nd,0 of 6
GFTLNDYGIS,VIDSDGRRTFYGDSVK,GRRALTFIS,Rand,nd,0 of 6
GFTLNSYGIS,VIYSDGRRTFYSDSVK,GKAGGTFDS,GPLM_HC,1.46,5 of 6
GFTLNSYGIS,VIYSDGVRTFYSDSVK,GRVAGTFDS,GPLM_Gibbs,0.23,6 of 6
GFTLNDYGIS,VIYSDGRRTFYGDSVK,GKTAGTFIS,GP_HC,nd,0 of 6
GFSLNSYGIS,VIYSDGRRTFYGDSVK,GMLAGTFDS,GP_Gibbs,0.19,6 of 6
GFTLDDYGIS,VIYSDGLRTFYGDSVK,GLAAGTFES,Ctrl,0.75,6 of 6
GFTLNDYGIS,VIYSDGRRTFYGDSIK,GRAAATPIS,Rand,nd,0 of 6
GFTLESYGIS,VIYSDGRRTFYGDSVK,GEAAGGFDS,Ctrl,nd,0 of 6
GFTLNSYGIS,VIYSDGRRLAYSDSVK,GRQAGTFDS,Ctrl,0.82,6 of 6
SFTLNSYGIS,VIYADGRRTFYGDSVK,GEAAGTFDS,GPLM_Gen,-0.26,6 of 6
GFTLNDYGIS,VIYSDGRRTFYGDSVK,GRHAGTFDI,GP_HC,0.92,6 of 6
GFTLNSYGIS,VIYSDGRRQFYADMVK,GRAALTFDS,Ctrl,nd,0 of 6
GFTLNEYGIS,VIYSDGRRVFYGDSVK,GRAAGTFDS,Ctrl,nd,0 of 6
GFCLNDYGIS,VIYSDGRRTYYGDSVK,GRQAGTFDS,Ctrl,3.15,1 of 6
GFTLMSYGIS,VIYADGRRTFYGDSVK,GQAAGTFTS,GP_HC,1.76,6 of 6
GFNLNSYGIS,VIYSDGRRTFYLDSVK,GNVAGTFDS,GP_Gibbs,0.09,6 of 6
GFSINSYGIS,VIYSDGRRTFYGDSVK,GEAAKTFDS,Ctrl,nd,0 of 6
GFDLNDYGIS,VIYSDGRRTFYGDAVK,GRAAGTFDI,GP_HC,0.24,6 of 6
KFSLNNYGIS,VIYSDGRRTFYGDSVK,GQAAGTFDS,GP_Gen,2.17,2 of 6
GFTLNDYGIS,VIYSDGRRTFYGDSVK,GRTAGTFDA,GPLM_Gen,-0.12,6 of 6
GFTLFSYGIS,VIYADGRRTFYGDSVK,GRAAGTFDS,GPLM_Gen,2.56,4 of 6
GFTLDDYGIS,VPYSDGRRTFYGDSVK,GRAAGTALL,Rand,nd,0 of 6
HFSLNSYGIS,VIYSDGRRTFYADSVK,GNEAGTFDS,GPLM_Gibbs,0.16,6 of 6
GFTMNSYGIS,VIYADGRRTFYGDSVK,GRAAGTPDS,Ctrl,nd,0 of 6
GFTLNSYGIV,VIYSDGRRTFYGDSVK,GRAACTFDS,Ctrl,nd,0 of 6
GFTLNSYGIS,VIYSDGRRTFYVDSVK,GQTAGTFDV,GP_Gibbs,1.34,5 of 6
GETLNNYGIS,VIYSDGRRTFYGDSVK,GRAAGTFDS,Ctrl,1.57,5 of 6
GFDLNSYGIS,VIYSDGRRTVYGDQVK,GRTAGTFDS,GP_Gibbs,-0.53,6 of 6
GFTLNEYGIS,VIYSDGRRTFYGDDVK,GRFAGTFDS,GP_HC,0.40,6 of 6
GFELNSYGIS,VIYSDGRRTFYQDSVK,GREAGTFDS,GPLM_Gibbs,0.43,6 of 6
GFELNSYGIS,VIYSDGRRTFYGDSVK,GITAGTFDS,GP_Gen,0.31,6 of 6

5 of these entries, quoted again:

CDR-H1,CDR-H2,CDR-H3,group,mean log10 Kd (nM),detected
GETLNDYGIS,VIYSDGRRTFYGDNVK,GRAAGTFDS,Ctrl,nd,0 of 6
GFTLMSYGIS,VIYADGRRTFYGDSVK,GQAAGTFTS,GP_HC,1.76,6 of 6
GFDLNSYGIS,VIYSDGRRTFYGDSVK,GRTADTFNS,GP_HC,nd,0 of 6
SFTLNSYGIS,VIYADGRRTFYGDSVK,GEAAGTFDS,GPLM_Gen,-0.26,6 of 6
GFTLNEYGIS,VIYSDGRRTFYMDDVK,GRTAGTFDS,GP_HC,0.06,6 of 6

The parent sequence was in this pool as ten entries: three were never detected, three once, and four in most replicates, with averages from 0.34 to 2.37. Background: pairings of all heavy chain designs with three empty control strains gave a value in 1% of cases (median 2.08, 5th percentile 0.84). Values in that range, when seen in few replicates, are hard to tell from nonspecific mating. The authors averaged sequences with at least three values out of six and counted those with two or fewer as poor binders.